Assay [1] deals with nonsensitized rats challenged with a natural mixture of HDM allergens. As to conditions: rat, in vivo.
Assay [2] has as its target T1, Der p 1 (Dermatophagoides pteronyssinus, UniProt P08176).
T1 sequence (P08176 99-320): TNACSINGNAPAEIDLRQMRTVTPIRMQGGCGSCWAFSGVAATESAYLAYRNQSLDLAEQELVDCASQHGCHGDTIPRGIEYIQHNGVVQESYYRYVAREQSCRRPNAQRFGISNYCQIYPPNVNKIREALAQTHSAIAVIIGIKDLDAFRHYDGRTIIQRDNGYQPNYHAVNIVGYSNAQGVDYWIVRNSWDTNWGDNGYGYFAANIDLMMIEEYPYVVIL
As to the kind of experiment: biochemical.

The values below come from PMC4257840 (Journal of Medicinal Chemistry, 2014).

SMILES strings stand for the structures. Marks after values point to notes of the source that are not given here.

As to `CC(C)[C@H](NC(=O)[C@H](C)NC(=O)[C@@H](NC(=O)C1CC[N+](C)(C)CC1)C(C)(C)C)C(=O)C(=O)NCc1ccccc1.O=C[O-]` [Compound 32, 4-{(S)-1-[(S)-1-((S)-1-Benzylaminooxalyl-2-methyl-propylcarbamoyl)-ethylcarbamoyl]-2,2-dimethyl-propylcarbamoyl}-1,1-dimethyl-piperidinium Formate], the “reduction in innate BAL eosinophil response” value in assay [1] is 58.7 ± 11.3 ^d %.

On to `CC(C)[C@H](NC(=O)[C@H](C)NC(=O)[C@@H](NC(=O)c1ccccc1)C(C)(C)C)C(=O)C(=O)NCc1ccccc1` [Compound 38, N-{(S)-1-[(S)-1-((S)-1-Benzylaminooxalyl-2-methyl-propylcarbamoyl)-ethylcarbamoyl]-2,2-dimethyl-propyl}-benzamide], for which, in assay [2], the IC50 (commonly the concentration needed to halve the response being measured) was 9 ± 1 nM and the inhibitory constant (Ki) (as a rule, the equilibrium dissociation constant of an inhibitor or competing ligand from its target) worked out at 4.5 nM.

As to `CC(C)[C@H](NC(=O)[C@H](C)NC(=O)[C@H](Cc1ccccc1)NC(=O)c1ccccc1)C(=O)C(=O)NCC(=O)N1CC[N+](C)(C)CC1.O=C[O-]` [Compound 52, 4-(2-{(S)-3-[(S)-2-((S)-2-Benzoylamino-3-phenyl-propionylamino)-propionylamino]-4-methyl-2-oxo-pentanoylamino}-acetyl)-1,1-dimethyl-piperazin-1-ium Formate], in assay [1], the “duration of protection: trend of inhibition of eosinophil recruitment with increasing pre-treatment interval” value was “rise to a peak”.
